Results published in patent publication US7510845B2, “Assay employing G protein-coupled receptor expressed in dorsal root ganglia” (California Institute of Technology, priority 2000, dated 2009).

Columns and labels:
Type in all cases: cell-based
MRGA1 [1] = biological target: T1, MRGA1 (Mus musculus, UniProt Q91WW5); assay: Intracellular Ca2+ release assay (Fura-2), MRGA1-GFP in HEK-Gα15 cells
T1 construct: cDNAs encoding eight full-length variants of Mrg receptors (mMrgA1-8) are provided; expressed in transfected cells; host or cells: HEK293-Galpha15 (A1) or HEK293 lacking Galpha15 (A4), transient transfection with FuGENE 6
T1 sequence (Q91WW5 1-304): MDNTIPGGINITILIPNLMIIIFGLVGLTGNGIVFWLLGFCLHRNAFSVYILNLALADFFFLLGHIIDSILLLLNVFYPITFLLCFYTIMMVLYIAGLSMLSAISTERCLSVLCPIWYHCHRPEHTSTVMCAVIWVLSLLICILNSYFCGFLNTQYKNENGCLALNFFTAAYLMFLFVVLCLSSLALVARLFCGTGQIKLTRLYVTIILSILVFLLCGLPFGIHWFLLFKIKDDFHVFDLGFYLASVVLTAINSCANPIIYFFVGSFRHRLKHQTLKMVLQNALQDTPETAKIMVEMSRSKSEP
Procedure: To identify ligands for the Mrg receptors, selected MrgA genes were tested in a calcium release assay. MrgA genes, including MrgA1 and MrgA4, were cloned into a eukaryotic expression vector and transfected into human embryonic kidney (HEK) 293 cells. HEK-293 cells were obtained from the ATCC and cultured in DMEM supplemented with 10% fetal bovine serum. An HEK293-Gα15 cell line stably expressing Gα15 was provided by Aurora Biosciences Corporation and grown on Matrigel™ (growth factor reduced Matrigel, Becton Dickinson, diluted 1:200 with serum-free DMEM)-coated flasks and maintained at 37° C. in DMEM (GibcoBRL) supplemented with 10% heat-inactivated fetal bovine serum, 2 mM L-glutamine, 0.1 mM non-essential amino acids, 1 mM sodium pyruvate, 25 mM HEPES and 3 μg/ml blastcidin-S. For transfection, cells were seeded on Matrigel-coated 35 mm glass-bottom dishes (Bioptech Inc., Butler, Pa.). After 16-24 hr, cells were transfected using FuGENE 6 (Roche). Transfection efficiencies were estimated by visualization of GFP fused to the C-terminus of MrgA1 and A4, and were typically >60%. […]
(§1) To increase the sensitivity of the calcium release assay, in some experiments the MRGA-GFP fusion proteins were expressed in HEK 293 cells modified to express Gα15, which couples GPCRs to a signal transduction pathway leading to the release of intracellular free Ca^2+ (Offermann and Simon J Biol Chem 270: 15175-80 (1995)). This calcium release can be monitored ratiometrically using Fura-2 as a fluorescent indicator dye (Tsien et al. Cell Calcium 6: 145-57 (1985)) (FIGS. 11A-C). […]
(§2) Briefly, transfected cells were washed once in Hank's balanced salt solution with 11 mM D-glucose and 10 mM HEPES, pH 7.4 (assay buffer) and loaded with 2 μM Fura-2 AM (Molecular Probes) at room temperature for 90 min, with rotation. […] A cooled CCD camera (Photometric) was used in detecting fluorescence. […] Fura-2 fluorescence signals (340 nm, 380 nm and the 340/380 ratio) originating from GFP-positive cells were continuously monitored at 0.4- or 1-second intervals and collected using Axon Imaging Workbench 4.0 software (Axon). […]

MRGA1 [2] = biological target: T1, MRGA1; assay: Intracellular Ca2+ release assay, MRGA1 in HEK cells lacking Gα15; details: ligand 1 μM
Procedure: (§3) To identify ligands for the Mrg receptors, selected MrgA genes were tested in a calcium release assay. MrgA genes, including MrgA1 and MrgA4, were cloned into a eukaryotic expression vector and transfected into human embryonic kidney (HEK) 293 cells. HEK-293 cells were obtained from the ATCC and cultured in DMEM supplemented with 10% fetal bovine serum. […]
as §2

MRGA4 [3] = biological target: T2, MRGA4 (Mus musculus, UniProt Q91WW2, A204G); assay: Intracellular Ca2+ release assay (Fura-2), MRGA4-GFP in HEK-Gα15 cells
T2 construct: cDNAs encoding eight full-length variants of Mrg receptors (mMrgA1-8) are provided; expressed in transfected cells; host or cells: HEK293-Galpha15 (A2) or HEK293 lacking Galpha15 (A5), transient transfection with FuGENE 6
T2 sequence (Q91WW2 9-313 A204G limits assumed): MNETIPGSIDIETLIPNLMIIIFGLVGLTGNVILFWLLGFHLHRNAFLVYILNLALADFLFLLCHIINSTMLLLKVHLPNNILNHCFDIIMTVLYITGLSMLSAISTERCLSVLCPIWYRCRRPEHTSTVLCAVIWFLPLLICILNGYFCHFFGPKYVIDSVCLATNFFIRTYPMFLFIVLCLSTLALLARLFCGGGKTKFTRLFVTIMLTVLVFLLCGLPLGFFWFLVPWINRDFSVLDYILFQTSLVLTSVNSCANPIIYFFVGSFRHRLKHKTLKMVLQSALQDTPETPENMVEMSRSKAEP
Procedure: as §3, §1, §2

MRGA4 [4] = biological target: T2, MRGA4; assay: Intracellular Ca2+ release assay, MRGA4 in HEK cells lacking Gα15; details: ligand 1 μM
Procedure: as §3, §2

MAS1 = assay: Intracellular Ca2+ release assay (Fura-2), MAS1 in HEK-Gα15 cells

SMILES: CC(C)C[C@H](NC(=O)[C@@H](N)Cc1ccccc1)C(=O)N[C@@H](CCCNC(=N)N)C(=O)N[C@@H](Cc1ccccc1)C(N)=O [FLRF]
- EC50 (MRGA1 [1]; HEK cells, RF-amide ligands, read-out: Relative efficacy of activation of MRGA1): 10 to 100 nM
- EC50 (MRGA1 [1]; HEK-Gα15 cells, dose-response, normalized to 5 μM FLRF, read-out: EC50 for activation of MRGA1 (calcium response)): ~20 nM
- Calcium response of MRGA1-expressing cells to ligand (MRGA1 [1]; HEK-Gα15 cells, ligand 1 μM): most efficient responses; also recorded: elevated intracellular free Ca^++; also recorded: strongest responses
- Calcium response of MRGA1-expressing cells to ligand (MRGA1 [2]): respond
- Activation of MrgA4 in dose-response experiments (MRGA4 [3]; HEK cells expressing Gα15): much more weakly activated
- EC50 (MRGA4 [3]; HEK cells, RF-amide ligands, read-out: Relative efficacy of activation of MRGA4): > 1000 nM
- Calcium response of MRGA4-expressing cells to ligand (MRGA4 [4]): but not
- EC50 (MAS1; HEK cells, RF-amide ligands, read-out: Relative efficacy of activation of MAS1): > 1000 nM
- Activation of MAS1 (MAS1; HEK-Gα15 cells): poorly activated; also recorded: not as well activated

“Also recorded” adds a separate entry of the source. Where two headings read alike, the source gives them in different places.
